Literature values as cited in patent publication US9551722B2, “Amyloid binding agents” (The Regents of the University of California, priority 2009, dated 2017).

Chains of the proteins cited; added tags and fusions are not shown. Residues count along the entry.
UniProt P05067, 672-713 limits assumed: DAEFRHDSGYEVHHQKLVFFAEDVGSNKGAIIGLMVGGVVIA

Target: T1, pre-aggregated Aβ(1-42) peptide (Homo sapiens, UniProt P05067)
T1 construct: preaggregated Aβ(1-42) peptides
Settings: literature value; read-out: Reported Kd; cited from earlier work

Cc1ccc2c(c1)sc(-c1ccc(N(C)C)cc1)[n+]2C [ThT, Thioflavin T]
Kd: 2 µM
